Activity calls are given as the source filed them. No cut-off for these calls is given here.
How the values were obtained:
[1] = molecular target: T1, Delta-type opioid receptor (Homo sapiens, UniProt P41143); assay: Antagonist activity at human recombinant delta opioid receptor expressed in mouse/rat NG108-15 cell membranes assessed as inhibition of SNC80-induced [35S]GTPgammaS binding by liquid scintillation counting analysis; type: functional
Homo sapiens [2] = species on record: Homo sapiens; assay: Selectivity ratio of Ki for human recombinant kappa opioid receptor to Ki for human recombinant delta opioid receptor
Homo sapiens [3] = species on record: Homo sapiens; assay: Selectivity ratio of Ki for human recombinant kappa opioid receptor to Ki for human recombinant mu opioid receptor
Homo sapiens [4] = species on record: Homo sapiens; assay: Selectivity ratio of Ki for human recombinant mu opioid receptor to Ki for human recombinant delta opioid receptor
[5] = molecular target: Kappa-type opioid receptor (Homo sapiens, UniProt P41145); conditions: CHO
Mu-type opioid receptor = Mu-type opioid receptor (Homo sapiens, UniProt P35372); conditions: CHO
[6] = molecular target: T1, Delta-type opioid receptor; assay: Partial agonist activity at human recombinant delta opioid receptor expressed in mouse/rat NG108-15 cell membranes assessed as stimulation of [35S]GTPgammaS binding after 3 hrs by liquid scintillation counting analysis; type: functional
Method in brief: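 DOR function measured in NG108-15 neuroblastoma-glioma membranes. Incubated with drug, GDP and 50 pM final [35S]GTPγS in 50 mM Tris-HCl pH 7.4, 100 mM NaCl, 10 mM MgCl2, 1 mM EDTA, 1 mM DTT, 0.1% BSA, 3 h at 25 °C. Unlabelled GTPγS defined nonspecific binding. Bound label collected on GF/B filters and scintillation counted; ED50 and Emax reported.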

The chains behind the UniProt entries cited, without tags or fusion partners. Where a name states a change or a piece, a line headed by the entry shows the natural chain unless it says otherwise.
UniProt P41143, whole entry: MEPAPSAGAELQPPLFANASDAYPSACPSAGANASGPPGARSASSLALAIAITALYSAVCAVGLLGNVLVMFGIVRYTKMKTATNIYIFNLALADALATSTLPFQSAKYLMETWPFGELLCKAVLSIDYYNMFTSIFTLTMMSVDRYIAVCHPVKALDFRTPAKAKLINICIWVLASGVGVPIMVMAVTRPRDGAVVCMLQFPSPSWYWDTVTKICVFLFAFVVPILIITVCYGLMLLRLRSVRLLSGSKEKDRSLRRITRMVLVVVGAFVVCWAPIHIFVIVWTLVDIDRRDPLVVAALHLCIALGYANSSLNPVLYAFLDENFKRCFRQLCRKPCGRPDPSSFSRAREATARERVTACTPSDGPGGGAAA
UniProt P41145: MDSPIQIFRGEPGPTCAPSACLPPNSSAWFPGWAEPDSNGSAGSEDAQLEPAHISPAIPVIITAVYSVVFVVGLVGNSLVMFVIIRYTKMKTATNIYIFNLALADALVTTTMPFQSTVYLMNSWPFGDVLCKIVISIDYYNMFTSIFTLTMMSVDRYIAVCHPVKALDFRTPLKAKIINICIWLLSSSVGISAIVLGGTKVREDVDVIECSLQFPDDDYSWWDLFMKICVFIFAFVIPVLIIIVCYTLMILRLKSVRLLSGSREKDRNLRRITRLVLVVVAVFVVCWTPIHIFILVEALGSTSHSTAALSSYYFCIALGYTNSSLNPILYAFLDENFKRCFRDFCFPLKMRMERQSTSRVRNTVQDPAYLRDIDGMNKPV
UniProt P35372, whole entry: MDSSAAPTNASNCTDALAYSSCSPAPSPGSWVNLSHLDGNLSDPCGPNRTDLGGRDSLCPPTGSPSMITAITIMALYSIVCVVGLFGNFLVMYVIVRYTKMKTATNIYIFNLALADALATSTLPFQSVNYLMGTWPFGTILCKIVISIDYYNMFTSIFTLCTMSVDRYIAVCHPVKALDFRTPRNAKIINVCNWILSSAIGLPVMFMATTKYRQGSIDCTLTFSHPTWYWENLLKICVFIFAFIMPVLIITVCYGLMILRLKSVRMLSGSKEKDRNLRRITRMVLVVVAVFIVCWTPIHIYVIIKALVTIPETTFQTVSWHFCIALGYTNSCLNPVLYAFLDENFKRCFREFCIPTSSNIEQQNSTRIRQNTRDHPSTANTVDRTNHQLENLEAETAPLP

Structure (SMILES) | ED50 (Mu-type opioid receptor) | ED50 [6] [nM] | further results
Oc1ccc2c(c1)[C@]1(CCc3ccccc3)CCN(CC3CC3)C[C@@H]1O2 (relative stereo) | inactive |  | Ke [1]: 64 nM; Ratio Ki (Homo sapiens [2]): 0.7; Ratio Ki (Homo sapiens [3]): 3; Ratio Ki (Homo sapiens [4]): 0.2; ED50 [5]: 135 nM
Oc1ccc2c(c1)[C@]1(CCc3ccccc3)CCN(CCc3ccc(C(F)(F)F)cc3)C[C@@H]1O2 (relative stereo) | 2150 nM | 1250 | 
Oc1ccc2c(c1)[C@]1(CCc3ccccc3)CCN(CCc3ccc(F)cc3)C[C@@H]1O2 (relative stereo) | 1190 nM | 350 | 
Oc1ccc2c(c1)[C@]1(CCc3ccccc3)CCN(CCc3cccc(C(F)(F)F)c3)C[C@@H]1O2 (relative stereo) | inactive |  | 
Oc1ccc2c(c1)[C@]1(CCc3ccccc3)CCN(CCc3ccccc3)C[C@@H]1O2 (relative stereo) | 567 nM | 395 | 
Oc1ccc2c(c1)[C@]1(CCc3ccccc3)CCN(CCc3ccccc3F)C[C@@H]1O2 (relative stereo) | 248 nM |  | 
